## Ab-14 heavy chain CDR variants: yeast mating affinities

Reference: Li et al. 2023, doi:10.1038/s41467-023-39022-2. File: FLAb, binding data.

Target peptide (SARS-CoV-2 spike, HR2 region): PDVDLGDISGINAS

Ab-14 is the parent antibody, in scFv form: VH, then a 15-residue (Gly4Ser)3 linker, then VL. The light chain is unchanged in all variants.
VH: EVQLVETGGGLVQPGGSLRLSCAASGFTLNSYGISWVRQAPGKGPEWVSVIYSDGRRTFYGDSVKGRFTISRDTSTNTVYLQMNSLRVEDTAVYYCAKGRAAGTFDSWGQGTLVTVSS
VL: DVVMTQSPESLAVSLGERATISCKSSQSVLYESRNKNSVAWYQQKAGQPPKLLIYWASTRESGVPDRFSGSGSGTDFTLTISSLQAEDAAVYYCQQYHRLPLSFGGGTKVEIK

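The variants were designed computationally from a first round of random CDR variants and then made and measured. Group labels follow the data file (Ctrl: baseline library sampled from a position-specific scoring matrix, with some repeated check sequences; Rand: our label for a block that the file lists under HC and that is probably the random mutants of the ten best first-round binders; En: ensemble of fine-tuned language models; GP: Gaussian process model; GPLM: also part of the Gaussian process libraries; HC: hill climbing; Gen: genetic algorithm; Gibbs: Gibbs sampling; a sequence that several methods proposed may carry one label only). Affinity was read by AlphaSeq, a pooled yeast mating assay with surface-displayed partners. After mating in shaken culture at 30 °C for 16 h, diploids were selected and their barcode pairs sequenced. Each replicate has its own calibration line, from reference interactions of the BCL2 family. Mating was done six times.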

Each variant is given by its three heavy chain CDRs, as the data file delimits them; those of the parent are GFTLNSYGIS, VIYSDGRRTFYGDSVK, GRAAGTFDS.
The read-out is the apparent dissociation constant on a log10 scale (nM): the lower, the stronger.
Replicates are averaged; those with no signal do not enter the mean.
An entry "no signal" has no value in the source: the pair was not observed among the diploids in any replicate. This suggests poor binding but is not conclusive.
A sequence measured in both rounds can read differently, since the two assays cover different ranges.
Of ten entries with the parent sequence, four were seen in most replicates (averages 0.34 to 2.37), three in one and three in none, so single entries are noisy.
In the paper, a design with two or fewer of six values counts as a poor binder.
Empty control strains, which show no peptide, gave a signal in 1% of pairings with all heavy chain designs; the median was 2.08 and 95% of these signals were weaker than 0.84. No background was subtracted.
Some sequences occur more than once in the pool; their replicates are pooled.

CDR-H1	CDR-H2	CDR-H3	group	log10 Kd (nM), mean	seen in
GFSLNHYGIS	VIYSDGRRTFYGDSVK	GRTAGTFDS	GPLM_Gen	0.71	6/6
GFHLNSYGIS	VIYSDGRRTFYADSVK	GKTAGTFDS	GPLM_Gibbs	0.71	6/6
GFTLNSYGIS	VIYSDGYRTFYIDSYK	GRAAGTFDS	Ctrl	no signal	0/6
GFTLNEYGIS	VIYSDGRRTFYGDSVK	GRAAGTFMK	GP_HC	no signal	0/6
GFTLNSYGIS	VIYADGRRTFYGDSVK	GTAAGTFKM	GP_HC	no signal	0/6
GFTLNSYGIS	VIYSDGLRTFYGDSVK	GRTAGTFDS	GPLM_Gen	1.66	6/6
GKDIEEYGVS	VIYADGKRNAYANKFK	GDNAGSFVD	En_Gibbs	no signal	0/6
GFGLDEYGIS	VIYADGNRQMYTDNVK	GNNLMLVSV	En_Gibbs	no signal	0/6
GFTLNSYGIS	VIYSDGRRTFYNDSVK	GRAAGTFDS	Ctrl	0.97	1/6
GQNLDEYGIS	VIYADGMRKYYADNVK	GKSVGSIII	En_Gibbs	no signal	0/6
GFDLNEYGIS	VIYADGRRTAYADSVK	GEVAGTFDQ	En_Gen	-0.63	5/6
GFTLNSYGIS	VIYSDGRRTFYSDSVK	GQAAGTFDK	GPLM_Gibbs	0.79	5/6
GFDLDEYGIS	VIYADGVRTFYADSVK	GNQAGTFDV	En_Gen	-0.24	6/6
GFDIEEYGIS	VIYADGIRQAYKNDVK	GTNVGRFSV	En_Gibbs	1.93	1/6
GFDLNEYGIS	VIYADGRRTFYSDSVK	GSVAGTFDS	En_HC	-0.59	6/6
GFTLNSYGIS	VIYSDGMRTFYGDSVK	GRAALTFDS	Ctrl	no signal	0/6
GFDLNEYGIS	VIYADGSRTAYADSVK	GNTAGTFDQ	En_Gen	-0.40	6/6
KFQLNEYGIS	VIYSDGRRTFYQDSVK	GRAAGTFDS	GP_Gibbs	1.96	1/6
GFDLNEYGIS	VIYADGRRSFYADSVK	GQLAGTFDT	En_HC	-0.51	6/6
GFTLNDYGIS	VIYSDGRRTFYGDSRK	GRAALTFIS	Rand	no signal	0/6
GFTLNDYGIS	VIYSDGRRTFYGDSVK	GRVAGTFDS	Ctrl	0.65	6/6
GFNLDEYGIS	VIYADGMRTAYADSVK	GENAGTFDV	En_Gen	-0.43	6/6
GFYLNDYGIS	VIYSDGRRTQYIDSVK	GRAAGTFDS	GP_HC	2.63	3/6
GDGLKEYGIS	VIYADGMRTSYVNQVK	GQKSGGFNL	En_Gibbs	no signal	0/6
GFDLNEYGIS	VIYADGQRTFYADSVK	GQNAGTFDQ	En_HC	-0.88	6/6
GFDLDEYGIS	VIYADGMRVSYDQNVK	GRGGVSFVF	En_Gibbs	no signal	0/6
GFDLNEYGIS	VIYADGQRTAYADKVK	GQNAGTFDV	En_Gen	-0.72	4/6
GFTLNEYGIS	VIYSDGRRTFYEDDVK	GRNAGTFDS	GP_HC	0.64	6/6
GFGLNSYGIS	VIYSDGRRTFYGDSVK	GRNAGTFDS	GP_Gibbs	1.58	6/6
GFDLNEYGIS	VIYADGRRTSYIDSVK	GNVAGTFDL	En_HC	0.22	6/6
GFGLNEYGIS	VIYSDGRRTFYGDSVK	GQAAGTFDD	Ctrl	2.62	1/6
FFKLEDYGIS	VIYADGKRTAYEQNVK	GQIAGTFDV	En_Gibbs	0.64	2/6
GQTLNSYGIS	VIYSDGRRTFYGDSVK	GRNAGTFDS	Ctrl	no signal	0/6
GFNIDEYGIS	VIYADGMRTAYSNAVK	GNVNGGTFS	En_Gibbs	1.09	1/6
GFDLNEYGIS	VIYADGRRTFYADSVK	GEAAGTFDF	En_HC	-0.36	6/6
GNTLNSYGIS	VIYSDGWRTFYGDSVK	GRAATTFDS	Ctrl	0.77	1/6
KFTLNSYGIS	VDYSDGRRTFYGDSVK	GRAAGTFDS	Ctrl	no signal	0/6
GFTLNSYGGS	VIYSDGRRTFYGDSVK	GRARGTFDS	Ctrl	no signal	0/6
LFTLESYGIS	VIYSDGRRTFYGDSVK	GTAAGTIDS	Ctrl	1.29	1/6
GFTLNEYGIS	VIYSDGRRTYYGDSVK	GRAAGTFIS	GP_HC	no signal	0/6
GFTLNSYGIS	VIYSDGRRQFYIGQVK	GLAAGTFDS	Ctrl	no signal	0/6
GFTLNDYGIS	VIYSDGRRTFYIDQVK	GNAAGTFDS	GP_HC	0.33	6/6
GFQLDEYGIS	VIYADGSRTAYQDSVK	GKYKFSLVV	En_Gibbs	no signal	0/6
GFTLNDYGIS	VIYSDDRRTFYGDSVK	GRAAITFIS	Rand	no signal	0/6
GFELNEYGIS	VIYSDGRRTFYGDSVK	GRTAGTFDV	GP_Gibbs	0.31	6/6
GFDLNSYGIS	VIYSDGRRTFYDDSVK	GRAAVTFDI	GP_HC	no signal	0/6
GFTLNQYGIS	VIYADGRRTFYGDSVK	GRAAHTFDS	Ctrl	no signal	0/6
GFTLNDYGIS	VIYSDGRRTMYGDSVK	GRAAGTFWS	GP_HC	no signal	0/6
GFDLNSYGIS	VIYSDGRRTFYGDSVK	GRCAGTFDS	GPLM_Gen	2.30	3/6
GFDLEEYGIS	VIYADGQRTAYADSVK	GNNAGTFDV	En_Gen	0.03	6/6
GFDLMEYGIS	VIYADGVRTAYQDQVK	GQEAGALYT	En_Gibbs	no signal	0/6
GFDLDEYGIS	VIYADGMRTAYSDSVK	GNEAGTFDQ	En_Gen	-0.45	6/6
GDDLEAYGIS	VIYADGMRTYYSDQVK	GNVNGTFFD	En_Gibbs	5.32	1/6
GFDIQEYGIS	VIYADGHRTAYTNKVK	GGISMISVT	En_Gibbs	no signal	0/6
GFDLNEYGIS	VIYADGKRTSYADDVK	GNVAGTFDV	En_Gen	-0.31	6/6
LFSLNMYGIS	VIYSDGRRTAYGDSVK	GRAAGTFKS	Ctrl	no signal	0/6
GFALNSYGIS	VIYSDGRRTFMGDSVK	GPAAGTFSS	Ctrl	no signal	0/6
GFDLNEYGIS	VIYADGRRTQYSDSVK	GNEAGTFDS	En_HC	-0.08	6/6
GFTLNSYGIS	VIYSDGRRTFYGDSVK	GRTAGTFDS	Ctrl+GPLM_Gen	0.75	9/12
GFELESYGIS	VIYSDGRRTFYADSVK	GRAAGTFDS	GPLM_Gen	0.47	6/6
GFQLNEYGIS	VIYSDGRRTFYGDQVK	GEAAGTFDS	GP_Gen	0.48	2/6
GEELDEYGIS	VIYADGRKQSYSDSVK	GAIAGNFDA	En_Gibbs	no signal	0/6
GFSLDEYGIS	VIYADGARAFYTNKVK	GVEVGDLGT	En_Gibbs	2.81	1/6
GFDLDEYGIS	VIYADGRRTFYADSVK	GTNAGTFDA	En_HC	0.14	6/6
GFDLNEYGIS	VIYADGRRTFYSDSVK	GENAGFFDI	En_HC	no signal	0/6

Picked from the list: the 6 lowest averages where every replicate gave a value.

{"CDR-H1": "GFDLNEYGIS", "CDR-H2": "VIYADGQRTFYADSVK", "CDR-H3": "GQNAGTFDQ", "group": "En_HC", "log10 Kd (nM), mean": "-0.88", "seen in": "6/6"}
{"CDR-H1": "GFDLNEYGIS", "CDR-H2": "VIYADGRRTFYSDSVK", "CDR-H3": "GSVAGTFDS", "group": "En_HC", "log10 Kd (nM), mean": "-0.59", "seen in": "6/6"}
{"CDR-H1": "GFDLNEYGIS", "CDR-H2": "VIYADGRRSFYADSVK", "CDR-H3": "GQLAGTFDT", "group": "En_HC", "log10 Kd (nM), mean": "-0.51", "seen in": "6/6"}
{"CDR-H1": "GFDLDEYGIS", "CDR-H2": "VIYADGMRTAYSDSVK", "CDR-H3": "GNEAGTFDQ", "group": "En_Gen", "log10 Kd (nM), mean": "-0.45", "seen in": "6/6"}
{"CDR-H1": "GFNLDEYGIS", "CDR-H2": "VIYADGMRTAYADSVK", "CDR-H3": "GENAGTFDV", "group": "En_Gen", "log10 Kd (nM), mean": "-0.43", "seen in": "6/6"}
{"CDR-H1": "GFDLNEYGIS", "CDR-H2": "VIYADGSRTAYADSVK", "CDR-H3": "GNTAGTFDQ", "group": "En_Gen", "log10 Kd (nM), mean": "-0.40", "seen in": "6/6"}